Experimental data from ChEMBL document CHEMBL1136432, “Discovery of potent imidazole and cyanophenyl containing farnesyltransferase inhibitors with improved oral bioavailability” (Bioorg Med Chem Lett, 2003).

Protein sequences, listed by entry. Tags and fused reporters are not part of them.
UniProt P49355, whole entry, looked up: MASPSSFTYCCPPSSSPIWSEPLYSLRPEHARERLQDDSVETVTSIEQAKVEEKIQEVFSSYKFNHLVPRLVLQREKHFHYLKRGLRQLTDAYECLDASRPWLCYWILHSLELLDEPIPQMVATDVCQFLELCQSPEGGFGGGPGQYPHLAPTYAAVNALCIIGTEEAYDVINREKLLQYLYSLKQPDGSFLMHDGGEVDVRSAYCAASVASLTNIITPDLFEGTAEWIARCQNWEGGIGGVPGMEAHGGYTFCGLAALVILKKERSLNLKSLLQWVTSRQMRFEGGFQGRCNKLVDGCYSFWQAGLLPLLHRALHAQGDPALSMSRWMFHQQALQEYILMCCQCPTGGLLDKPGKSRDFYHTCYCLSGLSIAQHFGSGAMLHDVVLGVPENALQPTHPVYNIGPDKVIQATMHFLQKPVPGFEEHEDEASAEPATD

Target: Protein farnesyltransferase (Bos taurus, UniProt P29702+P49355)
Assay: Inhibition of transfer of [3H]FPP to biotin K-ras peptide (KKSKTKCVIM) catalyzed by bovine FTase
Type: protein-complex assay

IC50 [nM] | Structure (SMILES)
0.99 | Cn1cncc1C(OCc1nc(N2CCN(C(=O)OC(C)(C)C)CC2)c(C#N)cc1-c1cccc(Cl)c1)c1ccc(C#N)cc1 (configuration not stated)
0.9 | Cn1cncc1C(OCc1nc(Cl)c(C#N)cc1-c1cccc(Cl)c1)c1ccc(C#N)cc1 (configuration not stated)
